The record followed here is paper PMC9191647 (2019).

The chains behind the UniProt entries cited, without tags or fusion partners.
UniProt P35363, whole entry: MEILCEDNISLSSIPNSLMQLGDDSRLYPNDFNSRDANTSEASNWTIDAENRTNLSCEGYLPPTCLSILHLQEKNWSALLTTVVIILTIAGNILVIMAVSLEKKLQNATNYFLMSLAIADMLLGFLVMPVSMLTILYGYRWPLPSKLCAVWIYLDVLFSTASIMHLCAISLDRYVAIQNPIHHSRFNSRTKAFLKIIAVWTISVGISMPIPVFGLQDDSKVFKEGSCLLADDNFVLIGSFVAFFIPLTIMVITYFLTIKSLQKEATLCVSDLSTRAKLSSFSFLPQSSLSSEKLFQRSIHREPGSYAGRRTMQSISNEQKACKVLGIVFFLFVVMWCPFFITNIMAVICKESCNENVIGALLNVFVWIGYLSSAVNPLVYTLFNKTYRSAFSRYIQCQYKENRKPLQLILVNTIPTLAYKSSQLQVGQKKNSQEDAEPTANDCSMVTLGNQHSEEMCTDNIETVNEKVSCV

The target of the experiment is mouse 5-HT2A (m5-HT2A) (Mus musculus, UniProt P35363). To be noted: percent 5-HT maximum response.

`NCCc1c[nH]c2ccc(O)cc12` [5-HT, serotonin]: the “Emax % 5-HT” value amounted to 100 % 5-HT.
